What was measured:
Type in all cases: cell-based
DAT (SLC6A3) = molecular target: T1, DAT (SLC6A3) (Homo sapiens, UniProt Q01959); experiment: in vitro inhibition profile, IC50 of DAT (uptake assay); conditions: from Table II IC50
T1 construct: expressed in transfected cells
Description: Before the assay, cells expressing DAT are washed once with KRH and equilibrated for 5 min. The cells may be assayed in 24-well plates and incubated for 2-5 min. with tritiated amines. Nontransported inhibitors were preincubated for 5 min, and substrates were applied together with the tritiated substrate.
Experiments to determine the ionic requirements for DAT-mediated uptake are done in KRH buffer, substituting LiCl or choline Cl for NaCl (sodium-dependence) or substituting D-gluconates for NaCl and KCl, and Ca(NO3)2 for CaCl2 (chloride dependence). Cells are washed twice with sodium- or chloride-free KRH before the assay (each wash step at least 5 min). In all transport assays, incubation periods and substrate concentrations are chosen such that uptake obeyed first-order rate kinetics.
Vmax values for amine uptake in stable transfected DAT-cells are determined in parallel assays for at least two amines per experiment and expressed as relative values.

Chains of the proteins cited; added tags and fusions are not shown.
UniProt Q01959, whole entry: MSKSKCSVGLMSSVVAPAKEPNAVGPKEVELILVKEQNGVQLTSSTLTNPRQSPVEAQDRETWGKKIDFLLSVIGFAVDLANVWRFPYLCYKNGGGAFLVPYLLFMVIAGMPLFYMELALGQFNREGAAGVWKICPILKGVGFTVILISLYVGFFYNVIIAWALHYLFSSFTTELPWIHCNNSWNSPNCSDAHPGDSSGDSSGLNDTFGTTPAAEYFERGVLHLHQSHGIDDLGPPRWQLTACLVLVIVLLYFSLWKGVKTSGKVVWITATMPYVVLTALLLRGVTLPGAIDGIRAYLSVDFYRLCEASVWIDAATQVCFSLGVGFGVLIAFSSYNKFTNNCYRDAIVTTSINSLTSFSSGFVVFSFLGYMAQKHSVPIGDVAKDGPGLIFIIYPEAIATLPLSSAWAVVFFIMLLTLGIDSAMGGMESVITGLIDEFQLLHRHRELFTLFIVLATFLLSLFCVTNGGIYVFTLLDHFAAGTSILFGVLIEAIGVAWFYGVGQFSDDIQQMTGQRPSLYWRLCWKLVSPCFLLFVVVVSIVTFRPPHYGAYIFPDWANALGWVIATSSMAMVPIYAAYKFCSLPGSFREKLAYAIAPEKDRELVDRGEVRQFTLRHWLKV
UniProt P31652, whole entry: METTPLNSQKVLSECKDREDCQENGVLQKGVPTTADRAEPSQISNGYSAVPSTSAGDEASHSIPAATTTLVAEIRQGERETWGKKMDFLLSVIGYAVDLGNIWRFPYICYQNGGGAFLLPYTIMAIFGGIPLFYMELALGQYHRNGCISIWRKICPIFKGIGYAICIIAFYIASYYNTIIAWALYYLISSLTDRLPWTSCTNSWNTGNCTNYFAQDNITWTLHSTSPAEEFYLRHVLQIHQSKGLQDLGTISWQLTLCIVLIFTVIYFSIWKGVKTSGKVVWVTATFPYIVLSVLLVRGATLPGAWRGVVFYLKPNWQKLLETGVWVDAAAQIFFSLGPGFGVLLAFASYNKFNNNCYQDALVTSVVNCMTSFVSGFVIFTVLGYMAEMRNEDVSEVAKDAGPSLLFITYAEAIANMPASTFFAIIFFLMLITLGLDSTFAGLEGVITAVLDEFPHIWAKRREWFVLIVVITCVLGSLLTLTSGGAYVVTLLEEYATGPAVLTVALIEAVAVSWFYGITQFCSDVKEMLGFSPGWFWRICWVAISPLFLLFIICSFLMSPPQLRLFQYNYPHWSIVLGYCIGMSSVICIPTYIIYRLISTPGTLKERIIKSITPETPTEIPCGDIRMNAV
UniProt P23977, whole entry: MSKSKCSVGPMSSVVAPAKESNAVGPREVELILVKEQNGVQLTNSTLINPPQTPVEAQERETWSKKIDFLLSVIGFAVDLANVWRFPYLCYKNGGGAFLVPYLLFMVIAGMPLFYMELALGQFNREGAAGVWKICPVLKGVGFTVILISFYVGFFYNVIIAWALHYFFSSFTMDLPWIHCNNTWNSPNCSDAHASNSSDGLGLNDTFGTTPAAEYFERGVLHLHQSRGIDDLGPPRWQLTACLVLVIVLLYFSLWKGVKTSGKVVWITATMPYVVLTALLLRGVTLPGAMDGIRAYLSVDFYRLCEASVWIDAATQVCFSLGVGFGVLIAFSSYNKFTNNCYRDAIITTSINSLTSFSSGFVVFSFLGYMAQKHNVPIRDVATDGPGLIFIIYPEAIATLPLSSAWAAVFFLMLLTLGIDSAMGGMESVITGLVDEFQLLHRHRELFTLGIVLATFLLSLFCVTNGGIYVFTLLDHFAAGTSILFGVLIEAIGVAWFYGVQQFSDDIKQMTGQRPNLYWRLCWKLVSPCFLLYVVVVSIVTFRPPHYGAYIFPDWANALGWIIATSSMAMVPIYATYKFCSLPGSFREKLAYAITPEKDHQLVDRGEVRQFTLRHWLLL

DAT (h) = molecular target: T2, DAT (h) (Homo sapiens, UniProt Q01959)
T2 construct: expressed in transfected cells
Description: Functional activity of the compounds was determined in vitro in cellular assays using recombinant human cell lines.

5-HT (r) = 5-HT (r) (Rattus norvegicus, UniProt P31652); experiment: in vitro functional uptake, rat 5-HT; conditions: unit inferred
DAT (r) = DAT (r) (Rattus norvegicus, UniProt P23977); experiment: in vitro functional uptake, rat DAT; conditions: unit inferred

For `CC1CCN(CC2(c3ccc(Cl)cc3)CCC2)CC1COc1ccc(C(F)(F)F)cc1` (stereo not shown) [(1)], the “fold selectivity of DAT against related receptors (NET, 5-HT)” value (DAT (SLC6A3)) was 175-1200 fold, the “selectivity for DAT over 5-HT” value (DAT (h)) was 5000 fold and the “selectivity for DAT over NET” value (DAT (h)) was 1000 fold.
For `CC(C)C[C@@H](N)C1(c2ccc(Cl)cc2)CCC1` [R-DDMS, reference compound], the EC50 (5-HT (r)) was 1.5 µM and the EC50 (DAT (r)) was 0.1 µM.
`CN[C@H](CC(C)C)C1(c2ccc(Cl)cc2)CCC1` [R-DMS, reference compound] was tested, and the EC50 (5-HT (r)) was 1.5 µM and the EC50 (DAT (r)) was 0.07 µM.

Source: patent publication US20100093706A1, “MULTIMEDIATOR TRANSPORTER INHIBITORS FOR USE IN TREATMENT OF CENTRAL NERVOUS SYSTEM DISORDERS” (priority 2006, published 2010)
